# Ab-14 light chain CDR variants: yeast mating affinities

From the AlphaSeq antibody data of Engelhart et al. 2022 (doi:10.1038/s41597-022-01779-4), copy in the FLAb collection.

Target peptide (SARS-CoV-2 spike, HR2 region): PDVDLGDISGINAS

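The starting antibody came from a phage panning campaign against this peptide. The library (AAYL50) carries one to three amino acid substitutions per variant, with no insertions or deletions. Affinity was read by AlphaSeq, a pooled yeast mating assay with surface-displayed partners. After mating in shaken culture at 30 °C for 16 h, diploids were selected and their barcode pairs sequenced. Read counts were normalised to the haploid input and turned into Kd by a linear fit to BCL2-family pairs of known affinity, for each replicate. Each pool was mated in three replicate cultures.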

Ab-14 is the parent antibody, in scFv form: VH, then three GGGGS repeats, then VL. The heavy chain is unchanged in all variants.
VH: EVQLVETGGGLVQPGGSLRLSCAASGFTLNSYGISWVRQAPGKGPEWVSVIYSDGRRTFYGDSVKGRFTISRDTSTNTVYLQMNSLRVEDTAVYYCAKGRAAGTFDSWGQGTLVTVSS
VL: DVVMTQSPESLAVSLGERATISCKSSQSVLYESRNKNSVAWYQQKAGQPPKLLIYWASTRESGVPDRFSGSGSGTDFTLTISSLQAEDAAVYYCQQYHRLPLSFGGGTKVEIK

Variants are written as CDR1, CDR2 and CDR3 of the light chain (limits as in the source). Parent: KSSQSVLYESRNKNSVA, WASTRES, QQYHRLPLS.
This list gathers variants with a substitution at Q95 (VL, numbered from residue 1).
Affinities are written as log10 Kd with Kd in nM; a lower number is a better binder.
"n.d." means that the variant was in the library but no mating with the target was seen in that replicate; the authors take this as a sign of poor binding, and no number exists.
Background: pairings of library AAYL50 with three empty control strains gave a value in 18% of cases (median 4.19, 5th percentile 2.99). Values in that range, when seen in few replicates, are hard to tell from nonspecific mating.
Parent in this assay: reference entry 0.65, copy in this library 1.68.

| CDR-L1 | CDR-L2 | CDR-L3 | log10 Kd (nM) by replicate |
|---|---|---|---|
| KSSGSVLYESREKNSVA | WASTRES | EQYHRLPLS | 2.17 1.68 1.53 |
| KSSPSVLYESRNKNSVA | WASTREA | YQYHRLPLS | 0.45 0.90 1.30 |
| KSSQSVLYESRNKNSVA | WASTRES | PQYERLPLH | n.d. n.d. n.d. |
| KSSQSVLVESRNKNSVA | WASCRES | VQYHRLPLS | n.d. n.d. n.d. |
| KSSQSVLYESRNKNSVA | WASTRES | VQYHRLPLK | n.d. n.d. n.d. |
| KSSQSVLYESRNKDSVA | WASKRES | GQYHRLPLS | 3.17 3.39 5.97 |
| KSSQSVLYESRNKNSVA | SASTREF | TQYHRLPLS | 2.83 n.d. n.d. |
| KSSQSVLYESRNKNSVA | WASTRES | FQYHRLPLS | 0.71 0.87 0.72 |
| KSSQSVLYESRNKNSVA | WASTRAS | DQYHRLPLS | 2.46 2.35 2.36 |
| KSSQSVLYESRNKNSVA | WASTRES | NWLHRLPLS | 3.76 n.d. n.d. |
| KSSQSVLYEFRNKNSVA | WASTRES | IQYHRNPLS | 2.82 2.26 3.06 |
| KSSQSVLYEFRNKNSVA | WASTRES | CQYHRLPQS | n.d. n.d. n.d. |
| KGSQSVLYESRNKNSVA | WASTREV | YQYHRLPLS | n.d. n.d. n.d. |
| KSSQSVLYEIRNKNSVA | WAMTRES | HQYHRLPLS | 4.58 n.d. n.d. |
| KSSQSVLYESVNKNSVA | WASTRMS | EQYHRLPLS | 0.80 1.05 0.93 |
| KSSQSVLYESGNKNSVA | WAWTRES | HQYHRLPLS | 1.15 1.23 1.37 |
| KSSESVLYESRNKNSVY | WASTRES | MQYHRLPLS | n.d. n.d. n.d. |
| KSSQSVLYESRNKNSVA | WASTRES | PAYHRLPLV | 1.46 1.51 1.37 |
| KSSQSVLYERRNKNSVA | WASTRES | CQYHRLRLS | 2.08 2.03 2.00 |
| KSNQSVLIESRNKNSVA | WASTRES | RQYHRLPLS | 1.63 1.85 1.58 |
| KSSQSTLYESRNKNTVA | WASTRES | CQYHRLPLS | n.d. n.d. n.d. |
| KSSQSVLYESRNKNSVA | WASTRES | PQYHRLPLS | 1.71 1.56 1.89 |
| KSSQSVLYESRNKPSVA | WASTREV | IQYHRLPLS | n.d. n.d. n.d. |
| KSSQSVLAESRNKNSVA | WASTRES | DQYHRLPIS | n.d. n.d. n.d. |
| KSSQSVLYESCNKNSVA | WASTRES | TQYHRLPLS | 1.13 1.32 1.24 |
| KSSQSVLYESRNKNSVA | WISTRES | PQYHRLPLS | 4.83 4.25 n.d. |
| KSSQTVLYESRNKNSVA | WASTRES | MQYHRLLLS | n.d. n.d. n.d. |
| KSSQSVLYESRNKNSVA | WASTRES | TQQHRLVLS | n.d. n.d. n.d. |
| KYSQSVLYESRNKNSVA | WASTRES | MQYHRLMLS | 1.00 1.42 1.03 |
| KSSNSVLYESRNKNSVA | WASMRES | FQYHRLPLS | n.d. n.d. 4.07 |
| KSSQSVLYESRNKNSLA | WASTRES | MQYHRKPLS | 4.63 4.41 6.19 |

For reference, 2 entries of the list once more:

| CDR-L1 | CDR-L2 | CDR-L3 | log10 Kd (nM) by replicate |
|---|---|---|---|
| KGSQSVLYESRNKNSVA | WASTREV | YQYHRLPLS | n.d. n.d. n.d. |
| KSSQSVLYESGNKNSVA | WAWTRES | HQYHRLPLS | 1.15 1.23 1.37 |